Assay results: paper PMC4768790 (The New phytologist, 2015)

Target: HopZ3 (Pseudomonas syringae, UniProt Q4ZX47)
Assay: in vitro autoacetylation assay, […] autoradiography
Type: biochemical
Settings: labelled compound; 50 mM HEPES pH 8.0, 30°C, 1 h

SMILES: CC(=O)SCCNC(=O)CCNC(=O)[C@H](O)C(C)(C)COP(=O)(O)OP(=O)(O)OC[C@H]1O[C@@H](n2cnc3c(N)ncnc32)[C@H](O)[C@@H]1OP(=O)(O)O [acetyl-CoA]
- in vitro autoacetylation assay, 14C autoradiography: HopZ3 possesses an acetyltransferase activity in vitro
